# Data reported in PubChem BioAssay AID1159606 (Sanford-Burnham Center for Chemical Genomics, 2016).
# The list shows a part of the results, in another mix than the full data. Some tests of the compounds listed are not included; inactive here does not mean inactive elsewhere. The source made the active and inactive calls. Cut-off read from the data, not from the text of the source: active = inhibition above about 50%; inactive = the rest.
# Test: blockers of TWEAK-induced Fn14 reporter activity – luciferase reporter cells, uHTS, primary screen (AID 1159606)
# Conditions: TWEAK-stimulated Fn14 reporter cells, luciferase luminescence, 8 h; at 10 µM; hits give high values
row,Structure (SMILES),inhibition
1,Cc1ccc(C(=O)NCC2(N3CCCCC3)CCCCC2)cc1,inactive: 12.1%
2,CC(C)N1C(=O)CC2(CCN(CCOC(=O)C(O)(c3ccccc3)c3ccccc3)CC2)C1=O,inactive: 17.1%
3,CCN(CC)CC(C)C(C)OC(=O)C(O)(c1ccccc1)c1ccccc1 (stereo unspecified),inactive: -5.81%
4,COc1cc(SC)ccc1C(=O)NCC1(N(C)C)CCCCC1,inactive: 12.4%
5,CN1[C@@H]2CC[C@H]1CC(OC(=O)C(O)(c1ccccc1)c1ccccc1)C2 (stereo partly specified),inactive: 5.23%
6,O=C(NCC1(N2CCCCC2)CCCCC1)c1cc([N+](=O)[O-])ccc1Cl,inactive: 7.85%
7,CCN1CCCC(OC(=O)C2(O)c3ccccc3C=Cc3ccccc32)C1 (stereo unspecified),inactive: -0.55%
8,Cc1cc(C(=O)NCC2(N3CCCCC3)CCCCC2)ccc1[N+](=O)[O-],inactive: 22.1%
9,O=C(NCC1(N2CCCCC2)CCCCC1)c1cccc(Br)c1,inactive: 24.1%
10,COc1ccc(C(=O)NCC2(N(C)C)CCCCC2)cc1,inactive: -0.71%
11,C=CCN1CCN(CCOC(=O)C(O)(c2ccccc2)c2ccccc2)CC1,inactive: -6.22%
12,O=C(NCC1(N2CCCCC2)CCCCC1)c1cc(F)c(F)cc1Cl,inactive: 6.94%
13,Cc1ccccc1C(=O)NCC1(N2CCCCC2)CCCCC1,inactive: 0.76%
14,CN(C)c1ccc(C(=O)NCC2(N(C)C)CCCCC2)cc1,inactive: 4.25%
15,CN(C)C1CCCC1OC(=O)C(O)(c1ccccc1)c1ccccc1 (stereo unspecified),inactive: -0.7%
16,O=C(NCC1(N2CCCCC2)CCCCC1)c1cccc(Cl)c1,inactive: 25.4%
17,COc1cccc(C(=O)NCC2(N3CCCCC3)CCCCC2)c1,inactive: -0.91%
18,COc1ccc(Cl)cc1C(=O)NCC1(N(C)C)CCCCC1,inactive: 4.19%
19,COc1cc(C(=O)NCC2(N(C)C)CCCCC2)c([N+](=O)[O-])cc1OC,inactive: 10.7%
20,CN(C)C1(CNC(=O)c2ccc(Br)cc2)CCCCC1,inactive: 15.6%
21,CN(C)c1cccc(C(=O)NCC2(N(C)C)CCCCC2)c1,inactive: -9.5%
22,CC(C)Oc1ccc(C(=O)NCC2(N(C)C)CCCCC2)cc1,inactive: -7.66%
23,O=C(OCCN1CCCC1)C(O)(c1ccccc1)c1ccccc1,inactive: 10.5%
24,COc1ccc(Br)c(C(=O)NCC2(N3CCCCC3)CCCCC2)c1,inactive: -2.68%
25,C=C(C)C#CC(O)(C(=O)OC1CCN(C)CC1)c1ccccc1 (stereo unspecified),inactive: 11%
26,O=C(OC1CN2CCC1CC2)C(CO)(c1ccccc1)c1ccccc1 (stereo unspecified),inactive: -2.9%
